# Test results as given in PubChem BioAssay AID504847 (National Center for Advancing Translational Sciences (NCATS), 2011).
# The chains behind the UniProt entries cited, without tags or fusion partners.
# UniProt P11473, whole entry: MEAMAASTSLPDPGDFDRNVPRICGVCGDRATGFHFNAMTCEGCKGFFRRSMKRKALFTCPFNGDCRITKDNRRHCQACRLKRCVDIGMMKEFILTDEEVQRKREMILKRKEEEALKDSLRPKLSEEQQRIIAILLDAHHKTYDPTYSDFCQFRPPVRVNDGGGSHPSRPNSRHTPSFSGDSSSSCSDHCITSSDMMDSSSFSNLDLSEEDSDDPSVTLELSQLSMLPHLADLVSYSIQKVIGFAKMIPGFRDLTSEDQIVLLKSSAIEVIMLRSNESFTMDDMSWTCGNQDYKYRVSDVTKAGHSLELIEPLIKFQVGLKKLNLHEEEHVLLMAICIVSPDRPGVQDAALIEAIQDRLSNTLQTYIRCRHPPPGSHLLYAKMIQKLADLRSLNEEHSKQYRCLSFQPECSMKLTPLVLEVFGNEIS
# Several values for one entry are separate records, joined by “and”; a condition that tells them apart may be missing. Identical values can stand only once. Only a part is listed here, and it is no random draw. Results filed as inconclusive are left out. Activity calls are given as the source filed them. The call rests on the fitted dose curve; in most records, active means well fitted inhibition curve with a large enough effect; inconclusive means small, poorly fitted or top-dose-only effect, or another doubt; inactive means no such curve, though single readings can be large or run the other way.
# Target: Vitamin D3 receptor (Homo sapiens) (UniProt P11473)
# Test: Inhibitors of the vitamin D receptor (VDR): qHTS
# Settings: VDR-SRC2-3 peptide fluorescence polarization, 2 h; max response, negative = inhibition: active compounds read low
# On the % scale 0 is the no-effect control and ±100 the full control effect.
row,Structure (SMILES),"max response, negative = inhibition"
1,CCOP1(=S)c2c(C)nn(CCC#N)c2N=C(c2ccc(F)cc2)N1C (stereo not drawn),inactive: -5.25%
2,CN(C(=O)Cc1ccccc1)[C@@H]1CC[C@]2(CCCO2)C[C@H]1N1CCCC1,inactive: 5.59% and inactive: -6.61%
3,N#CCCN(C(=O)COC(=O)C(O)(c1ccccc1)c1ccccc1)c1ccc(F)cc1,inactive: -1.32%
4,O=[N+]([O-])OCC(CO[N+](=O)[O-])(CO[N+](=O)[O-])CO[N+](=O)[O-],inactive: -1.79%
5,NC(=O)Nc1ccc([As](=O)(O)O)cc1,inactive: 2.21% and inactive: -7.28% and inactive: -17.3%
6,CCOC(=O)c1ccc(NP(C)(=O)Oc2ccc(F)cc2)cc1 (stereo not drawn),inactive: -8.27%
7,O=P1(N(CCCl)CCCl)OCCC2CCCCN21 (stereo not drawn),inactive: -9.12%
8,COc1ccc(OP(C)(=O)Nc2ccc(SC(F)(F)F)cc2)cc1 (stereo not drawn),inactive: -3.82%
9,O=C(NC1CCS(=O)(=O)C1)NP(=S)(Oc1ccccc1)Oc1ccccc1 (stereo not drawn),inactive: 16.7%
10,CCNC(=S)/N=C(\N)N[N+](=O)[O-],inactive: -16.9%
11,Cc1ccc(NP(=O)(Oc2cccc(C)c2)Oc2cccc(C)c2)nc1,inactive: 10.1%
12,c1ccc(-c2nn[nH]n2)c(-c2nn[nH]n2)c1,inactive: 7.21%
13,CP(=O)(Nc1ccccc1)Oc1ccc(F)cc1 (stereo not drawn),inactive: 3.07%
14,CCCCCOc1ccc(NP(C)(=O)Oc2ccc(Cl)cc2Cl)cc1 (stereo not drawn),inactive: 37.2%
15,O=c1c2cc([N+](=O)[O-])ccc2[nH]c2c([N+](=O)[O-])cc([N+](=O)[O-])cc12,inactive: 17%
16,CN(C)C(=O)Oc1noc2ccccc12,inactive: 5.33%
17,CC(NC(=O)COC(=O)C(O)(c1ccccc1)c1ccccc1)c1ccccc1 (stereo not drawn),inactive: -5.17%
18,Cc1ccccc1OP(=O)(Nc1ccccn1)Oc1ccccc1C,inactive: 5.24%
19,CC(=O)NC(SC(=S)N(CC(C)C)CC(C)C)C(Cl)(Cl)Cl (stereo not drawn),inactive: -13.8%
20,Cc1ccc(OP(=O)(Nc2ccccn2)Oc2ccc(C)cc2)cc1,inactive: 8.72%
21,COC(=O)c1cc2c(s1)N=C(c1ccccc1)N(C)P2(=O)N1CCOCC1 (stereo not drawn),inactive: 10.7%
22,Cc1c([N+](=O)[O-])cc([N+](=O)[O-])c(Br)c1[N+](=O)[O-],inactive: -22.3%
23,CCC(=O)N1C2C3N(C(=O)CC)C1C1N(C(=O)CC)C(C(N1C(=O)CC)N3C(=O)CC)N2C(=O)CC,inactive: 1.39%
24,CCN(CC)CCCOC(=O)C(O)(c1ccccc1)C1CCCCC1 (stereo not drawn),inactive: 7.7%

row,Structure (SMILES),"max response, negative = inhibition"
1,O=C(OC1CN2CCC1CC2)c1ccccc1 (stereo not drawn),inactive: 1.2% and inactive: -3.63%
2,CP(=O)(Nc1ccccc1F)Oc1ccccc1 (stereo not drawn),inactive: 2.03%
3,CCc1cc(O)c([N+](=O)[O-])c(C)c1[N+](=O)[O-],inactive: -10.5%
4,CC(C)c1ccc(OP(C)(=O)Nc2ccc(SC(F)(F)F)cc2)cc1 (stereo not drawn),inactive: -7.96%
5,CC(C)(C)C(=O)NC(Sc1ccccc1)C(Cl)(Cl)Cl (stereo not drawn),inactive: -3.17%
6,CCOc1ccc(C2=NCC(CBr)S2)cc1 (stereo not drawn),inactive: 1.94%
7,O=P1(Nc2nc3ccc(Cl)cc3s2)COc2ccccc2O1 (stereo not drawn),inactive: 8.76%
8,CC(=O)Nc1ccc(Oc2c([N+](=O)[O-])cc([N+](=O)[O-])cc2[N+](=O)[O-])cc1,inactive: -27%
9,CC(=O)Nc1ccc([As](=O)(O)O)c(O)c1,inactive: 4.73%
10,COC(=O)C1(C)COP(=O)(NCc2ccccc2)OC1 (stereo not drawn),inactive: -7.22%
11,CC(=O)c1ccc(N2CC2c2ccncc2)cc1 (stereo not drawn),inactive: 6.34%
12,N#C/C(=C\c1ccc(N(CCBr)CCBr)cc1)C(N)=O,inactive: -16.3%
13,C[C@H]1OP(=O)(Oc2ccccc2)C[C@@H]2O[C@@H]21 (stereo partly drawn),inactive: 8.49%
14,C[C@@H]1C=CCP(=O)(Oc2ccccc2)O1 (stereo partly drawn),inactive: -8.53%
15,O=C(OCCN1CCN(CCOCc2ccccc2)CC1)C(O)(c1ccccc1)c1ccccc1,inactive: -0.362%
16,Cc1ccccc1CN(C)C(=O)COC(=O)C(O)(c1ccccc1)c1ccccc1,inactive: -2.33%
17,CCOP(C)(=S)SCC(=O)NC(C)(CC)C(=O)O (stereo not drawn),inactive: 16.5%
18,CCC(C)(OOC(C)(C)C)OOC(C)(C)C,inactive: 4.16%
19,c1nnnn1CCn1cnnn1,inactive: 5.52%
20,CP(=O)(Nc1ccc(SC(F)(F)F)cc1)Oc1ccc(F)cc1 (stereo not drawn),inactive: -25.2%
21,O=P(Nc1nccs1)(c1ccccc1)c1ccccc1,inactive: -15.1%
22,CC(C)C(=O)NC(Sc1ccccc1)C(Cl)(Cl)Cl (stereo not drawn),inactive: -21.1%
23,Cc1ccccc1NP(C)(=O)Nc1ccccc1C,inactive: 10.8%
24,CCN(CCCl)Cc1ccccc1C,inactive: -1.63%
